Laboratory results from PubChem BioAssay AID602363 (Broad Institute, 2012).
Hit rate of the full screen: of about 350,000 compounds, about 450 (0.13%) were called active.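 How the source made its calls: active means replicate mean at a twofold rise or more (about +100% in these data); inactive means the rest.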 The sample as a whole holds a higher share of actives than the screen did.

Test: modulators of yeast start codon fidelity, primary screen, whole organism, S. cerevisiae, single point, plate reader (AID 602363)
Conditions: S. cerevisiae UUG-firefly luciferase reporter, luminescence/redox ratio; at 18.7 µM; active compounds read high

Activity score, active:
CC(C)C#Cc1ccc2c(c1)O[C@@H](CN(C)C(=O)CN(C)C)[C@@H](C)CN([C@H](C)CO)S2(=O)=O 61.3%
C[C@@H]1CN([C@@H](C)CO)S(=O)(=O)c2ccc(C#Cc3ccc(F)cc3)cc2O[C@H]1CN(C)C(=O)NC1CCCC1 273%
O=C1N=C(N2CCc3ccccc3C2)S/C1=C\c1ccc(O)cc1 376%
Cc1c(Nc2cc(N3CCCC(C)C3)c3nonc3c2[N+](=O)[O-])c(=O)n(-c2ccccc2)n1C (stereo unspecified) 273%
CC1CCCN(S(=O)(=O)c2ccc(N(C(=O)c3cnccn3)C(C(=O)NC3CCCCC3)c3cccs3)cc2)C1 (stereo unspecified) 130%

Activity score, inactive:
C[C@@H]1CN([C@@H](C)CO)C(=O)c2cc(NS(=O)(=O)c3cccs3)ccc2O[C@@H]1CN(C)S(=O)(=O)c1ccc(F)cc1 2.8%
C[C@@H]1CCCCO[C@@H](CN(C)S(C)(=O)=O)[C@H](C)CN([C@@H](C)CO)C(=O)c2cc(NC(=O)Nc3ccc4c(c3)OCO4)ccc2O1 12.2%
C[C@H]1CN([C@@H](C)CO)C(=O)c2cc(-c3ccccc3F)cnc2O[C@@H]1CN(C)C(=O)C1CCCCC1 12.9%
CO[C@@H]1CN(C)C(=O)c2cc(NC(=O)NC3CCCCC3)ccc2OC[C@H](C)N(CC2CC2)C[C@H]1C -4.52%
CC(=O)N(C)C[C@H]1Oc2cc(C#CC3CC3)ccc2S(=O)(=O)N([C@H](C)CO)C[C@@H]1C 22%
COc1ccccc1C#Cc1ccc([C@H]2[C@H](CO)N3CCCCN(C(=O)C4CCC4)C[C@@H]23)cc1 29.8%
Cc1ccccc1-c1cnc2c(c1)C(=O)N([C@@H](C)CO)C[C@@H](C)[C@@H](CN(C)CC1CCOCC1)O2 -10.7%
C[C@H]1CN([C@@H](C)CO)S(=O)(=O)c2ccc(C#CCN(C)C)cc2O[C@H]1CN(C)C(=O)CN(C)C 28.3%
C/C=C/c1ccc2c(c1)O[C@@H](CN(C)C(=O)NC1CCCC1)[C@@H](C)CN([C@H](C)CO)S2(=O)=O 12.5%
C[C@@H]1CN([C@@H](C)CO)S(=O)(=O)c2ccc(C#C[C@@H](C)O)cc2O[C@@H]1CN(C)C(=O)CN(C)C -1.41%
C[C@@H]1CN([C@@H](C)CO)S(=O)(=O)c2ccc(C#Cc3ccc(F)cc3)cc2O[C@@H]1CN(C)CC1CC1 11.3%
Cc1ccc(S(=O)(=O)N(C)C[C@@H]2Oc3ccc(NC(=O)NC4CCCCC4)cc3C(=O)N([C@@H](C)CO)C[C@H]2C)cc1 -6.25%
C[C@@H]1CN([C@@H](C)CO)S(=O)(=O)c2ccc(C#Cc3ccccc3)cc2O[C@@H]1CN(C)C(=O)C1CC1 -28.6%
COCC#Cc1cnc2c(c1)C(=O)N([C@@H](C)CO)C[C@@H](C)[C@@H](CN(C)C(=O)c1cccnc1)O2 -8.09%
CN1c2ccc(Br)cc2[C@@H]2[C@@H](CCN2C(=O)C2CCCCC2)[C@H]1CO 25.4%
C[C@H](CO)N1C[C@H](C)[C@H](CN(C)C(=O)Nc2cccc3ccccc23)Oc2ncc(C#Cc3ccccc3)cc2C1=O -10%
Cc1ccccc1S(=O)(=O)N1[C@H](C#N)[C@H](c2ccccc2)[C@H]1CO -7.59%
C[C@H](CO)N1C[C@H](C)[C@H](CN(C)S(=O)(=O)c2cccs2)Oc2ccc(NS(=O)(=O)c3ccc(Cl)cc3)cc2CC1=O 3.99%
COc1ccc(CN(C)C[C@H]2OCCCC[C@H](C)Oc3ccc(NC(=O)Nc4ccc5c(c4)OCO5)cc3C(=O)N([C@H](C)CO)C[C@@H]2C)cc1 0.433%
C[C@H](CO)N1C[C@H](C)[C@H](CN(C)S(=O)(=O)c2cccs2)Oc2c(NC(=O)Nc3ccc4c(c3)OCO4)cccc2C1=O 6.62%
O=C(C[C@H]1C[C@H]2c3cc(NC(=O)NC4CCCC4)ccc3O[C@H]2[C@H](CO)O1)NCCc1ccccc1 -18.1%
C[C@@H]1CN([C@H](C)CO)C(=O)c2cc(NS(=O)(=O)c3ccccc3)ccc2O[C@@H](C)CCCCO[C@H]1CN(C)C(=O)C1CCCCC1 18.3%
CCC(=O)N1[C@@H](CO)[C@H](c2ccc(-c3cccc(F)c3)cc2)[C@@H]1CNC(C)=O 2%
C[C@H](CO)N1C[C@H](C)[C@@H](CN(C)S(=O)(=O)c2cccs2)Oc2ccc(NC(=O)Nc3cccc4ccccc34)cc2CC1=O -2.1%
C[C@@H]1CN([C@H](C)CO)C(=O)c2cccc(NC(=O)Nc3ccccc3)c2O[C@H]1CN(C)S(C)(=O)=O 1.91%
C[C@@H]1CN([C@H](C)CO)C(=O)c2cc(NS(=O)(=O)c3ccc(F)cc3)ccc2O[C@H]1CN(C)C(=O)Nc1cccc2ccccc12 -5.16%
CCC(=O)N(C)C[C@H]1Oc2cc(C#CC3CCCC3)ccc2S(=O)(=O)N([C@H](C)CO)C[C@@H]1C -3%
COc1ccccc1-c1cn(CC[C@H]2CC[C@@H](NC(=O)CCN3CCCCC3)[C@@H](CO)O2)nn1 7.11%
O=C(Cc1ccccn1)NCC[C@H]1CC[C@H](NS(=O)(=O)c2ccccc2)[C@@H](CO)O1 7.13%
COc1cccc(S(=O)(=O)Nc2ccc3c(c2)C(=O)N(C)C[C@@H](OC)[C@H](C)CN(C(=O)Cc2cccnc2)[C@H](C)CO3)c1 -4.59%
CCOc1cc(/C=C2\SC(N3CCCCC3)=NC2=O)ccc1O 6.38%
O=C1N=C(N2CCOCC2)S/C1=C\C=C/c1ccccc1 -1.22%
Cc1cc(C)c(S(=O)(=O)Nc2c(C)n(C)n(-c3ccccc3)c2=O)cc1[N+](=O)[O-] 3.79%
Cc1c(NC(=O)c2c([N+](=O)[O-])cnn2C)c(=O)n(-c2ccccc2)n1C -20.3%
CCc1ccc(N(C(=O)c2csnn2)C(C(=O)NC2CCCCC2)c2ccncc2)cc1 (stereo unspecified) -16.9%
O=C(NC1CCCCC1)C1CCCN(S(=O)(=O)c2cccs2)C1 (stereo unspecified) -10.8%
